In ChEMBL document CHEMBL1156441, “Mechanism of inactivation of plasminogen activator inhibitor-1 by a small molecule inhibitor” (J Biol Chem, 2007) one finds IC50 and Kd data, which are given here for one compound.

By UniProt entry, the sequences of proteins in these tests, tags left out.
UniProt P05121, whole entry: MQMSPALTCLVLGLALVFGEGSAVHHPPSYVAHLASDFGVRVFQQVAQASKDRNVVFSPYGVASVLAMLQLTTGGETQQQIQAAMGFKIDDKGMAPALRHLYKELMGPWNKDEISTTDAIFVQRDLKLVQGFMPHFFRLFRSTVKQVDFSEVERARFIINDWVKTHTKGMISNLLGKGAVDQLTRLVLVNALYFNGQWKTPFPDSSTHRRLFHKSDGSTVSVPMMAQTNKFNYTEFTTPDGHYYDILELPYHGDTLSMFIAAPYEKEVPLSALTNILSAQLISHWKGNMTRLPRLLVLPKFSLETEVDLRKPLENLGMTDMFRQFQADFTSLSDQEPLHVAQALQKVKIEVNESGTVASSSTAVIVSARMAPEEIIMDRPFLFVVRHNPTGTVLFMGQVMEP

pIC50, pKd: −log10 of the molar value.

The term pIC50 denotes the IC50 on a negative log10 scale, so that one unit is a factor of ten. High values mean a small IC50, low ones a large IC50. Broadly, the pKd is the negative decadic logarithm of the Kd, by convention in mol/L. A higher pKd goes with a small Kd.

Test [1] deals with T1, Plasminogen activator inhibitor 1 (Homo sapiens, UniProt P05121). Put plainly: Inhibition of human glycosylated PAI1 using tissue type plasminogen activator substrate by direct chromogenic assay.
For test [2], the target named is T1, Plasminogen activator inhibitor 1. Kind of test: Binding affinity to human immobilized PAI1 by surface plasmon resonance. (In SPR one partner is held on a chip, and binding of the other changes the refractive index at the surface.)
Test [3] shares this target. Kind of test: Inhibition of vitronectin binding to human PAI1.
For test [4] the target is unchanged. Put plainly: Inhibition of human glycosylated PAI1 using urokinase type plasminogen activator substrate by direct chromogenic assay.
The target is the same in test [5]. Kind of test: Inhibition of human non-glycosylated PAI1 using urokinase type plasminogen activator substrate by direct chromogenic assay.
Test [6] has the same target. Kind of test: Inhibition of human non-glycosylated PAI1 using tissue type plasminogen activator substrate by direct chromogenic assay.

With `O=C(O)C(=O)c1cn(Cc2ccccc2)c2ccc(-c3ccc(OC(F)(F)F)cc3)cc12` [TIPLASININ], the negative-log IC50 (pIC50) in test [1] was 4.91; in test [3] it was 4.89; in test [4], 5.06; in test [5], 5.01; in test [6], 4.94. Besides, the pKd in test [2] was 4.82.
